Series [1] in a line: Pharmacokinetic study with IV dosing. The conditions noted are these: IV 2 mg/kg, male C57BL/6 mice.
Series [2] is described as follows: Pharmacokinetic study with IP dosing. The conditions noted are these: IP 10 mg/kg, male C57BL/6 mice.

In the case of `COc1ccc2c(c1)C(c1ccc(Cl)cc1)=N[C@@H]([C@@H](C)C(=O)NCCCCCNC(=O)COc1cccc3c1C(=O)N(C1CCC(=O)NC1=O)C3=O)c1nnc(C)n1-2` (stereo partly drawn) [Compound 1, (2R)-2-((4S)-6-(4-chlorophenyl)-8-methoxy-1-methyl-4H-benzo[f][1,2,4]triazolo [4,3-a][1,4]diazepin-4-yl)-N-(5-(2-((2-(2,6-dioxopiperidin-3-yl)-1,3-dioxoisoindolin-4-yl)oxy)acetamido)pentyl)propanamide], the T1/2 was found to be 30.9 min in series [1] and 43.3 min in series [2].
For `COc1ccc2c(c1)C(c1ccc(Cl)cc1)=N[C@@H]([C@@H](C)C(=O)NCCOCCOCCNC(=O)COc1cccc3c1C(=O)N(C1CCC(=O)NC1=O)C3=O)c1nnc(C)n1-2` (stereo partly drawn) [Compound 5, (2R)-2-((4S)-6-(4-chlorophenyl)-8-methoxy-1-methyl-4H-benzo[f][1,2,4]triazolo [4,3-α][1,4]diazepin-4-yl)-N-(2-(2-(2-(2-((2-(2,6-dioxopiperidin-3-yl)-1,3-dioxoisoindolin-4-yl)oxy)acetamido)ethoxy)ethoxy)ethyl) propanamide] the same measures were 22 min and 37.4 min.

For the origin of these results see US20230234957A1, “PROTEIN TAG TO INDUCE LIGAND DEPENDENT DEGRADATION OF PROTEIN/PROTEIN-FUSIONS” (DANA-FARBER CANCER INSTITUTE, INC., priority 2020, published 2023).
